Test: Selectivity for adrenergic alpha2A receptor over 5HTT receptor

CN1CC2C(=NO[C@H]2CN2CCN(C/C=C/c3ccccc3)CC2)c2ccccc21 (stereo partly specified)
Selectivity ratio: 10
